# From PMC2580030 (PLoS ONE, 2008)
# Target: T1, HLA-DR1 (Homo sapiens, UniProt P01903+P01911, A100R/D57E/F55L/F60I/F76Y/I96L/L162R/M171V/P40L/Q125E/R42F/V115G/Y59C)
# T1 construct: made in house; host or cells: stably transfected Drosophila S2 insect cell lines (DR1 and DM separately)
# Assay type: binding
# Details: pH 5
sequence,measurement,value
"GPKYVKQNTLKLAT [HA, residues 306–318 of the hemagglutinin protein from influenza A virus (H3 subtype) with N-terminal Gly]",t1/2 of DR1/peptide complex (dissociation of prebound peptide),7.4623 ± 1.26 h
